Experimental data from patent US20150150960A1, “PROTECTION AGAINST DENGUE VIRUS AND PREVENTION OF SEVERE DENGUE DISEASE” (priority 2010, published 2015).
Where two headings read alike, the source gives them in different places.

Columns and labels:
[1] = test system: PBMC of DENV seropositive human donors; format: cell-based; details: ex vivo IFNγ ELISPOT
DENV2 = format: in vivo, IFN-α/βR−/− mice; details: four dominant epitopes together
[2] = allele B*4001, Sri Lankan donors

CC(C)C[C@H](NC(=O)CNC(=O)[C@H](CCC(=O)O)NC(=O)CN)C(=O)N[C@@H](Cc1c[nH]cn1)C(=O)N[C@@H](CCCCN)C(=O)N[C@@H](CC(C)C)C(=O)NCC(=O)N[C@@H](Cc1ccc(O)cc1)C(=O)O
T cell response [SFC] ([1]; human donors, allele B*4403): 248 SFC

CC[C@H](C)[C@H](N)C(=O)N[C@@H](CS)C(=O)N[C@@H](CO)C(=O)N[C@@H](C)C(=O)N[C@H](C(=O)N1CCC[C@H]1C(=O)N[C@H](C(=O)N[C@@H](Cc1c[nH]cn1)C(=O)N[C@@H](Cc1c[nH]c2ccccc12)C(=O)O)C(C)C)C(C)C
T cell response [SFC] ([1]; human donors, allele B*5801): 305 SFC

CC[C@H](C)[C@H](NC(=O)[C@H](C)NC(=O)[C@H](CCCNC(=N)N)NC(=O)[C@H](CO)NC(=O)CNC(=O)[C@@H](N)CCCCN)C(=O)N[C@@H](Cc1c[nH]c2ccccc12)C(=O)N[C@@H](Cc1ccc(O)cc1)C(=O)N[C@@H](CCSC)C(=O)N[C@@H](Cc1c[nH]c2ccccc12)C(=O)O
T cell response [SFC] ([1]; human donors, allele B*5801): 335 SFC

CC[C@H](C)[C@H](NC(=O)[C@H](CC(=O)O)NC(=O)[C@H](CCCCN)NC(=O)[C@H](CCCNC(=N)N)NC(=O)[C@@H](NC(=O)[C@@H](N)CCCCN)C(C)C)C(=O)N[C@@H](CCC(N)=O)C(=O)N[C@@H](CCC(N)=O)C(=O)N[C@@H](Cc1c[nH]c2ccccc12)C(=O)O
T cell response [SFC] ([1]; human donors, allele B*5701): 115 SFC

CC[C@H](C)[C@H](NC(=O)[C@H](CCC(=O)O)NC(=O)[C@@H](N)CCSC)C(=O)N[C@H](C(=O)N[C@@H](C)C(=O)N[C@@H](CCC(=O)O)C(=O)N[C@@H](Cc1c[nH]c2ccccc12)C(=O)N[C@@H](CC(C)C)C(=O)N[C@@H](Cc1c[nH]c2ccccc12)C(=O)O)[C@@H](C)O
T cell response [SFC] ([1]; human donors, allele B*5801): 27 SFC

CC[C@H](C)[C@H](NC(=O)[C@H](CCSC)NC(=O)[C@H](CC(N)=O)NC(=O)[C@@H]1CCCN1C(=O)[C@@H](N)CC(N)=O)C(=O)N[C@@H](CC(=O)O)C(=O)N[C@@H](CCCCN)C(=O)N[C@H](C(=O)N1CCC[C@H]1C(=O)N[C@H](C(=O)O)C(C)C)[C@@H](C)O
T cell response [SFC] ([1]; human donors, allele B*0702): 207 SFC

CSCC[C@H](NC(=O)[C@H](Cc1c[nH]c2ccccc12)NC(=O)[C@@H]1CCCN1C(=O)[C@@H](N)CC(N)=O)C(=O)N[C@@H](CCC(=O)O)C(=O)N[C@@H](CC(=O)O)C(=O)N[C@@H](CCCCN)C(=O)N[C@H](C(=O)N1CCC[C@H]1C(=O)N[C@H](C(=O)O)C(C)C)[C@@H](C)O
T cell response [SFC] ([1]; human donors, allele B*0702): 137 SFC

C[C@H](NC(=O)[C@H](Cc1c[nH]c2ccccc12)NC(=O)[C@@H](NC(=O)[C@H](CCCNC(=N)N)NC(=O)[C@H](Cc1ccc(O)cc1)NC(=O)[C@@H]1CCCN1C(=O)[C@H](CC(N)=O)NC(=O)[C@H](CCC(=O)O)NC(=O)[C@@H](N)CCC(N)=O)[C@@H](C)O)C(=O)N[C@@H](Cc1ccc(O)cc1)C(=O)O
T cell response [SFC] ([1]; human donors, allele B*4001): 992 SFC

CC(C)[C@H](NC(=O)[C@H](C)NC(=O)[C@H](C)NC(=O)[C@@H](N)CCCNC(=N)N)C(=O)N[C@@H](CCC(=O)O)C(=O)N[C@@H](CC(=O)O)C(=O)N[C@@H](CCC(=O)O)C(=O)N[C@@H](CCC(=O)O)C(=O)N[C@@H](Cc1ccccc1)C(=O)O
T cell response [SFC] ([1]; human donors, allele B*5801): 87 SFC

CC(C)C[C@H](NC(=O)[C@H](CO)NC(=O)CNC(=O)[C@H](CS)NC(=O)[C@H](Cc1c[nH]c2ccccc12)NC(=O)[C@H](CCC(N)=O)NC(=O)[C@H](CC(=O)O)NC(=O)[C@H](CCC(=O)O)NC(=O)[C@@H](N)CCCNC(=N)N)C(=O)O
T cell response [SFC] ([1]; human donors, allele B*4001): 150 SFC

CC[C@H](C)[C@H](NC(=O)CNC(=O)[C@H](CCC(=O)O)NC(=O)CNC(=O)[C@H](CCC(=O)O)NC(=O)[C@H](CCSC)NC(=O)[C@H](CCC(N)=O)NC(=O)[C@@H](N)CCCNC(=N)N)C(=O)N[C@@H](Cc1ccccc1)C(=O)O
T cell response [SFC] ([1]; human donors, allele B*1501): 583 SFC

CSCC[C@H](NC(=O)[C@H](CCC(N)=O)NC(=O)[C@@H](N)CCCNC(=N)N)C(=O)N[C@@H](CCC(=O)O)C(=O)NCC(=O)N[C@@H](CCC(=O)O)C(=O)NCC(=O)N[C@H](C(=O)N[C@@H](CC(C)C)C(=O)O)C(C)C
T cell response [SFC] ([1]; human donors, allele B*1501): 382 SFC

CSCC[C@H](NC(=O)[C@H](CCCCN)NC(=O)[C@H](CC(C)C)NC(=O)[C@@H](NC(=O)[C@@H](N)CCCNC(=N)N)C(C)C)C(=O)N[C@H](C(=O)N[C@@H](CCC(=O)O)C(=O)N1CCC[C@H]1C(=O)N[C@@H](Cc1c[nH]c2ccccc12)C(=O)O)C(C)C
T cell response [SFC] ([1]; human donors, allele B*5801): 643 SFC

CC(C)[C@H](NC(=O)[C@H](CCCNC(=N)N)NC(=O)[C@H](CCC(N)=O)NC(=O)[C@H](CCC(N)=O)NC(=O)CNC(=O)[C@H](Cc1ccccc1)NC(=O)[C@@H]1CCCN1C(=O)[C@@H](N)[C@@H](C)O)C(=O)N[C@@H](Cc1ccccc1)C(=O)O
T cell response [SFC] ([1]; human donors, allele B*3501): 48 SFC

CC[C@H](C)[C@H](NC(=O)[C@@H](NC(=O)[C@H](CC(=O)O)NC(=O)[C@H](CCSC)NC(=O)[C@@H](NC(=O)[C@H](C)NC(=O)CNC(=O)[C@H](CCCCN)NC(=O)[C@@H]1CCCN1C(=O)[C@@H](N)[C@@H](C)O)C(C)C)[C@@H](C)CC)C(=O)O
T cell response [SFC] ([1]; human donors, allele B*0702): 422 SFC

CC[C@H](C)[C@H](NC(=O)[C@@H](NC(=O)[C@H](CC(=O)O)NC(=O)[C@H](CCSC)NC(=O)[C@@H](NC(=O)[C@@H](NC(=O)CNC(=O)[C@H](CCCNC(=N)N)NC(=O)[C@@H]1CCCN1C(=O)[C@@H](N)[C@@H](C)O)[C@@H](C)O)C(C)C)[C@@H](C)CC)C(=O)O
T cell response [SFC] ([1]; human donors, allele B*0702): 505 SFC

CC(C)C[C@H](NC(=O)[C@H](Cc1ccc(O)cc1)NC(=O)[C@@H]1CCCN1C(=O)[C@@H](N)C(C)C)C(=O)NCC(=O)N[C@@H](CCCCN)C(=O)N[C@@H](CCCNC(=N)N)C(=O)N[C@@H](CCC(=O)O)C(=O)N[C@@H](CC(=O)O)C(=O)N[C@@H](CCC(N)=O)C(=O)O
T cell response [SFC] ([1]; human donors, allele B*0702): 425 SFC

CC(C)[C@H](NC(=O)[C@H](CCC(=O)O)NC(=O)[C@H](Cc1ccc(O)cc1)NC(=O)[C@H](CO)NC(=O)CNC(=O)[C@H](Cc1c[nH]cn1)NC(=O)[C@H](Cc1ccc(O)cc1)NC(=O)[C@H](C)NC(=O)[C@@H](N)Cc1c[nH]c2ccccc12)C(=O)O
T cell response [SFC] ([1]; human donors, allele B*5101): 97 SFC

CSCC[C@H](NC(=O)[C@H](CC(C)C)NC(=O)[C@@H](NC(=O)[C@H](CCC(=O)O)NC(=O)[C@@H](N)CC(C)C)[C@@H](C)O)C(=O)N[C@@H](CC(C)C)C(=O)N[C@H](C(=O)N[C@@H](C)C(=O)N[C@@H](CC(C)C)C(=O)O)C(C)C [LETLMLVAL]
T cell response [SFC] [1, 2]: 112 SFC

CC[C@H](C)[C@H](NC(=O)CNC(=O)[C@@H](NC(=O)[C@@H](NC(=O)[C@H](C)NC(=O)[C@H](CCSC)NC(=O)[C@@H](N)CCSC)[C@@H](C)O)[C@@H](C)CC)C(=O)N[C@@H](C)C(=O)N[C@@H](CC(C)C)C(=O)O [MMATIGIAL]
T cell response [SFC] ([1]; allele B*3501, Sri Lankan donors): 38 SFC

CSCC[C@H](N)C(=O)N[C@H](C(=O)N[C@@H](CCC(N)=O)C(=O)N[C@@H](CCCCN)C(=O)N[C@@H](C)C(=O)N[C@@H](CCCNC(=N)N)C(=O)N[C@@H](CC(N)=O)C(=O)N[C@@H](C)C(=O)N[C@@H](CC(C)C)C(=O)O)[C@@H](C)O [MTQKARNAL]
T cell response [SFC] ([1]; allele B*0702, Sri Lankan donors): 263 SFC

CSCC[C@H](NC(=O)[C@H](C)NC(=O)CNC(=O)[C@H](CCC(=O)O)NC(=O)[C@@H](N)CCC(N)=O)C(=O)N[C@@H](Cc1c[nH]cn1)C(=O)N[C@@H](CO)C(=O)N[C@@H](C)C(=O)N[C@@H](CC(C)C)C(=O)O [QEGAMHSAL]
T cell response [SFC] [1, 2]: 22 SFC

CSCC[C@H](NC(=O)[C@H](C)NC(=O)CNC(=O)[C@H](CCC(=O)O)NC(=O)[C@@H](N)CCC(N)=O)C(=O)N[C@@H](Cc1c[nH]cn1)C(=O)N[C@H](C(=O)N[C@@H](C)C(=O)N[C@@H](CC(C)C)C(=O)O)[C@@H](C)O [QEGAMHTAL]
T cell response [SFC] [1, 2]: 120 SFC

NS2A8-15: dominant DENV-2 derived H-2^b peptide, CD8+ T cell epitope (Yauch et al. 2009) (FSLGVLGM)
protective effect of peptide immunization after depletion of CD8+ T cells (DENV2): abrogated the protective effect
